# Data taken from ChEMBL document CHEMBL5518203, “Rational Design of Benzobisheterocycle Metallo-β-Lactamase Inhibitors: A Tricyclic Scaffold Enhances Potency against Target Enzymes” (J Med Chem, 2024).
# Amino acid sequences for entries named in this document (tags omitted). A change or cut given only in a name is not applied to a line headed by its entry.
# UniProt C7C422: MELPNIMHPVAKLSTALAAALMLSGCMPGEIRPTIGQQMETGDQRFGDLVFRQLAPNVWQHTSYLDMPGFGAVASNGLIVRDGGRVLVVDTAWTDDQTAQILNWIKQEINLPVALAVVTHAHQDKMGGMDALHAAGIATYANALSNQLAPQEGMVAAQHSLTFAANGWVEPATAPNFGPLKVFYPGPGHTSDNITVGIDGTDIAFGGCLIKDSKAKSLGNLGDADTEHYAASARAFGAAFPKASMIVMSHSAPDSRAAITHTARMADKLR
# Active and inactive are the calls of the source. No cut-off for these calls is given here.
# Biological target: Metallo-beta-lactamase type 2 (Bacteria) (UniProt C7C422)
# Test: Inhibition of full length NDM-1 (unknown origin) expressed in Escherichia DH5alpha at 100 microg/ml measured at 1 to 5 hrs
# Settings: dose 100.0 µg/ml, time 1-5 hrs
compound,measurement,value
SC[C@H]1SC[C@@H]2Nc3ccccc3N21 (relative stereo),inhibition,Active
